Assay results as given in US12594281B2, “Pharmaceutical dosage forms and methods of use” (EMALEX BIOSCIENCES, INC., priority 2024, dated 2026).

Assay: Phase 1 absorption, metabolism and excretion study of [14C]-ecopipam, single oral capsule dose
Format: in vivo, human
Settings: single oral dose 200 mg [14C]-ecopipam HCl

CN1CCc2cc(Cl)c(O)cc2[C@H]2c3ccccc3CC[C@@H]21 [ecopipam, (−)-trans-6,7,7a,8,9,13b-hexahydro-3-chloro-2-hydroxy-N-methyl-5H-benzo [d]-naphtho-[2,1-b]azepine]
Percentage of dose excreted in urine as analyte (geometric mean): 0.115%
